In patent US11584800B2, “Method of treating cancer comprising administration of anti-HER2 antibody-drug conjugate” (DAIICHI SANKYO COMPANY, LIMITED, priority 2014, dated 2023):

Columns and labels:
[1] = test system: Human breast cancer line JIMT-1 cells; assay: Antitumor test (3), JIMT-1 subcutaneous transplant in nude mice; settings: 10 mg/kg intravenously on Days 12 and 19
[2] = test system: Human gastric cancer line NCI-N87 cells; assay: Antitumor test (2), NCI-N87 subcutaneous transplant in nude mice; type: in vivo, nude mouse; settings: 10 mg/kg intravenously on Day 7
Source text: The calculation expression is as shown below. […] An untreated group was established as a control group.

What does the source list for trastuzumab emtansine?
weight loss of the mice, JIMT-1 test [1]: free from weight loss of the mice; weight loss of the mice, NCI-N87 test (2) [2]: free from weight loss of the mice
